# Ab-14 heavy chain CDR variants: yeast mating affinities

Reference: Engelhart et al. 2022, doi:10.1038/s41597-022-01779-4. File: FLAb, binding data.

Target: peptide PDVDLGDISGINAS, taken from heptad repeat 2 (HR2) of SARS-CoV-2 spike.

Parent: Ab-14, a human scFv built as VH, the linker GGGGSGGGGSGGGGS, VL. Only the CDRs of the heavy chain vary.
VH: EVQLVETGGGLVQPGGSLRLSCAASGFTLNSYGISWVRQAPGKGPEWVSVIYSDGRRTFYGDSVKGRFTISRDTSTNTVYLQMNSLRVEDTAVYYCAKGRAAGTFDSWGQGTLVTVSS
VL: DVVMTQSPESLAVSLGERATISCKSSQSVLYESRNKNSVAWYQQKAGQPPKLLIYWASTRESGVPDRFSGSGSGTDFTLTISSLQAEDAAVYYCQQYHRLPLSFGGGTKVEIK

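The starting antibody came from a phage panning campaign against this peptide. Library AAYL49 holds single substitutions and randomly drawn double and triple substitutions in the CDRs. AlphaSeq pools MATa yeast showing the antibodies with MATalpha yeast showing the peptide. Pairs that bind mate more often; barcode pairs of the diploids are counted by sequencing. Scores were corrected for input abundance and mapped to Kd with protein pairs of known affinity run in the same pool. The assay was run in three technical replicates.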

The parent's heavy chain CDRs are GFTLNSYGIS, VIYSDGRRTFYGDSVK, GRAAGTFDS; each variant's own CDRs replace them letter for letter.
Affinities are written as log10 Kd with Kd in nM; a lower number is a better binder.
Replicates are averaged; those with no signal do not enter the mean.
A pair that was not seen in any replicate is written "nd"; this usually means weak binding, but a binder can also be missed.
As a blank, each scFv also met three strains without target: over library AAYL49, 15% of these pairings were detected, typically at 4.06 and seldom below 2.83. For each scFv, signals with the empty controls are counted beside the result.

| CDR-H1 | CDR-H2 | CDR-H3 | mean log10 Kd (nM) | replicates with signal | signal with controls |
|---|---|---|---|---|---|
| PFAWNSYGIS | VIYSDGRRTFYGDSVK | GRAAGTFDS | 3.95 | 1/3 | 2/9 |
| GCTLNSYGIS | VIYSDGRRTFYGDSVK | GRAAGTFDY | nd | 0/3 | 0/9 |
| GFTLLSYGIS | VIYSDGRRFFYGDSNK | GRAAGTFDS | nd | 0/3 | 2/9 |
| GFTLNSYGCS | VIYSDGRRTFYGDSVK | GRDNGTFDS | 4.28 | 3/3 | 4/9 |
| GFTLNSYGIS | VIYSDGRRTAYGDSVK | GRAAGTWDW | 2.75 | 1/3 | 2/9 |
| GFTLNSYGIR | VIYSDGRRTFYYHSVK | GRAAGTFDS | nd | 0/3 | 0/9 |
| GFTLNPYGFS | VIYSDGDRTFYGDSVK | GRAAGTFDS | nd | 0/3 | 0/9 |
| GFTLNSYGIS | VIYCDGMRTFYGDSVK | GRAAGTFDI | nd | 0/3 | 0/9 |
| GFTHNSYGIS | VIYSSGRRTFYGDMVK | GRAAGTFDS | nd | 0/3 | 0/9 |
| GFTLFMYGIS | VIYSDGRRTFYGDSVK | GRSAGTFDS | 2.19 | 3/3 | 1/9 |
| GFTLNSYGIM | VIYSDGRSTFYGDRVK | GRAAGTFDS | nd | 0/3 | 3/9 |
| GFTVNSYGIS | VIYSDGRRTYYGDSVK | GRAAGTFDQ | 1.09 | 3/3 | 0/9 |
| GFTINSYGIS | VIYSDGRRTFNGDSVK | GRAAGTFDA | 2.88 | 3/3 | 3/9 |
| GFTLNSYGIP | VIRSDGRRTFYGDSVK | GRCAGTFDS | nd | 0/3 | 3/9 |
| GFTLNSFGIS | VIYSDGRRTFYEDSVF | GRAAGTFDS | 3.02 | 3/3 | 5/9 |
| GFTLNSYGIS | VGYSDGFRTFYGDSDK | GRAAGTFDS | 5.04 | 2/3 | 0/9 |
| GFTLNSYGIR | MIYSDGRRTFYGDSVK | GRAAGSFDS | nd | 0/3 | 0/9 |
| GFTLNSYGIS | VCASDGRRTFYNDSVK | GRAAGTFDS | 4.83 | 1/3 | 3/9 |
| GFTLNSYGIS | VIQSDWRRTFYGDSVK | GRAAGTFGS | 2.84 | 1/3 | 0/9 |
| PFTDNSYGIS | VIYSDGRRTFYGDSVK | GRAADTFDS | 3.47 | 1/3 | 1/9 |
| GFTLNSLGIS | VIYSDGRRTFWGDSVK | GRAAGTNDS | nd | 0/3 | 1/9 |
| GFTSNSYEIS | VIYSDKRRTFYGDSVK | GRAAGTFDS | nd | 0/3 | 3/9 |
| GFTYNSYGIS | VIYSDGRRTFYGASVK | GRTAGTFDS | nd | 0/3 | 0/9 |
| GFTLNEYGIS | VIYSDGIRTFNGDSVK | GRAAGTFDS | 0.84 | 3/3 | 1/9 |
| GFTKNSYGAS | VHYSDGRRTFYGDSVK | GRAAGTFDS | 4.73 | 1/3 | 1/9 |
| GFTLNSYGIS | VIYSDGRRHFYMISVK | GRAAGTFDS | nd | 0/3 | 0/9 |
| GFTLNSYTIS | VQYSDGRRTFYGDSVK | GRAAGTFDS | nd | 0/3 | 0/9 |
| GFTLNSYGIS | SIYSDGRITFYGDSVK | GRAAGTFDS | 4.20 | 3/3 | 4/9 |
| GFTLNSYGIS | VIYSDGRRTDYGDSVL | GRAAGTFDS | nd | 0/3 | 0/9 |
| GFTLNSYGIS | VIYSDGRQTFYGRSVK | GRAAGTPDS | nd | 0/3 | 2/9 |
| GFTLNFYGIS | VIYSDGRRTFYGDSVL | GRAIGTFDS | 5.17 | 1/3 | 3/9 |
| GWYLNSYGIS | VIYSDGNRTFYGDSVK | GRAAGTFDS | 4.19 | 1/3 | 0/9 |
| GFTLNSYGVS | VIYSDGRRTFYGDSVK | QRANGTFDS | 5.46 | 1/3 | 6/9 |
| GFTLNSYGIS | VIYSDGRRTIYADSVK | GRAAGTFDS | 1.08 | 3/3 | 2/9 |
| GFTLNSYGIS | EIYSDGRRTQYGISVK | GRAAGTFDS | nd | 0/3 | 0/9 |
| GFTHNSYGRS | VIYSDGRRTFYGDSVK | GRAAGFFDS | nd | 0/3 | 3/9 |
| GFTMNSYGID | VIYSDGRRTFYGDSVK | GRAAGEFDS | nd | 0/3 | 0/9 |
| GFTLNSYGIS | VIYSDGRRTFYGDSVV | GRAACTFDC | nd | 0/3 | 0/9 |

The remaining entries, values ahead:

| mean log10 Kd (nM) | replicates with signal | signal with controls | CDR-H1 | CDR-H2 | CDR-H3 |
|---|---|---|---|---|---|
| 2.03 | 1/3 | 2/9 | GFTLNSYGIS | VIYSMGRRTFYGDSVK | GVAAGTFTS |
| nd | 0/3 | 2/9 | GDTLNSYGIS | VIYSDGRRRFYGDSVK | GRAADTFDS |
| 4.84 | 1/3 | 2/9 | GQTLNSYGIS | VIYSDGRETFYGDSVK | GRAPGTFDS |
| nd | 0/3 | 0/9 | GFTLNSYGIS | VIYSDVRRTFLGDSVK | GRQAGTFDS |
| 3.07 | 1/3 | 4/9 | GFTGNRYGIS | VIYSDGRRDFYGDSVK | GRAAGTFDS |
| nd | 0/3 | 0/9 | GFTLNSYGIS | VIYSDGRRTFYYDSVK | GEAAGTTDS |
| 3.21 | 1/3 | 0/9 | GFTAESYGIS | VIYSDGRRTFYGDSVK | GRAAGTFES |
| 1.82 | 3/3 | 3/9 | GFTLNSYGIS | VIYGDGRRKAYGDSVK | GRAAGTFDS |
| 3.50 | 1/3 | 1/9 | GFGLNSYGIS | VIYSDIRRTFYGYSVK | GRAAGTFDS |
| nd | 0/3 | 0/9 | GFTLNSYGIS | VIYSDGRRAFCGDSVK | GRAAGTFDY |
| nd | 0/3 | 1/9 | GMTSNSYIIS | VIYSDGRRTFYGDSVK | GRAAGTFDS |
| 4.93 | 1/3 | 1/9 | GFTLNSYGIS | VIYSDGRETFYGDSVK | GVAAGYFDS |
| 4.66 | 1/3 | 1/9 | QFTLNSYGIS | VIRSDGRRTFYGDNVK | GRAAGTFDS |
| 4.64 | 2/3 | 4/9 | GFTLNSVGIS | VIYSDGRRTFYGDCVK | GRAAGTFDF |
| 4.05 | 1/3 | 0/9 | GFTLNMYRIS | VIPSDGRRTFYGDSVK | GRAAGTFDS |
| 4.56 | 2/3 | 5/9 | GFTLNSNGIM | VIYSDGRRTFYTDSVK | GRAAGTFDS |
| nd | 0/3 | 0/9 | GFTLNSYGIS | VKYSDQRRTFYGDSVK | GRAAGTKDS |
| 5.75 | 2/3 | 5/9 | GFTLNSYGAS | VIPSDGRRTFYGDSDK | GRAAGTFDS |
| 5.42 | 1/3 | 1/9 | GFTLNSYGIS | VIVSDGRRTFYGLSVK | GRAAGTRDS |
| 4.91 | 1/3 | 3/9 | GFTLNLYGIS | VIYSDGRDTFYGMSVK | GRAAGTFDS |
| 3.35 | 2/3 | 1/9 | GFTLNSYHIS | VIYSDGRRTFYGDSVK | GRAAMTFDS |
| nd | 0/3 | 1/9 | GFTLNSYGIS | VIYSDGRRTFWGDSVK | GRAAGRFDS |
| 3.57 | 1/3 | 2/9 | GFTCNSYGIS | VICSDGRRTFYGVSVK | GRAAGTFDS |
| nd | 0/3 | 1/9 | GTTLNSYGIS | VDYSDGRRTFDGDSVK | GRAAGTFDS |
| nd | 0/3 | 1/9 | MFTLNSYGIS | VIYSDGRRTFYGDSLK | GRAAGTFDS |
| nd | 0/3 | 0/9 | GFTLNSYGIS | VIYSDWRRFFYGDSVG | GRAAGTFDS |
| nd | 0/3 | 0/9 | GFTLNSFGIS | VIYSDGRRTFYGDSHK | TRAAGTFDS |
| 2.49 | 3/3 | 0/9 | GFLLWSYGIS | VIYSDGRRTFYGDSVK | GRAAGTFDS |
| nd | 0/3 | 0/9 | GFTSNSYGIS | VIYSDGRRTFYGDSVK | GNAAGHFDS |
| nd | 0/3 | 0/9 | GFTLNSYGIS | VIYNDGRRTFYGDSVK | GRAFGTFMS |
| 3.89 | 2/3 | 3/9 | QFTLNIYGIS | VIYSDGRRTFYGDSVK | GRWAGTFDS |
| nd | 0/3 | 2/9 | GFTLESYGIS | VIYSDGRRTFYYDSVK | GRAAGHFDS |
| 1.37 | 3/3 | 7/9 | GFTLNSYGIS | VIYSDGRRTFYGDSVR | GPAAGTFDS |
| 3.35 | 2/3 | 1/9 | GFTLWSYGIS | VWYSDGRRTFYGDSVK | YRAAGTFDS |
| 0.04 | 3/3 | 2/9 | GFTLNEYGIS | VIYSDGRRTQYGDSVK | GRAAGTFVS |
| 2.99 | 1/3 | 3/9 | GFTLNSVGIS | DGYSDGRRTFYGDSVK | GRAAGTFDS |
| nd | 0/3 | 0/9 | GFTLNSYGIS | VIISDGRRTFYGNSVK | GRASGTFDS |
| nd | 0/3 | 0/9 | GFYLNSYVIS | VIYSDGRRTFYGDSVK | GRAAGTFDS |
| nd | 0/3 | 0/9 | GFPLNSYGIS | VIYSDGRMTFYGDSVK | GRAADTFDS |